Data reported in US20030180797A1, “Identification of ligands for a receptor family and related methods” (priority 2002, published 2003).

Key:
[1] = molecular target: human inosine monphosphate dehydrogenase II (IMPDH) (Homo sapiens, UniProt P12268); experiment: Inosine-5'-monophosphate dehydrogenase (IMPDH) kinetic spectrophotometric assay, NAD+ reduction; details: read-out: IC50 for IMPDH; common ligand mimics, FIG. 11, 13
[2] = molecular target: human Aldose Reductase (Homo sapiens, UniProt P15121); experiment: Aldose reductase (AR) kinetic spectrophotometric assay; details: read-out: IC50 for AR; common ligand mimics, FIG. 11

Compound | IC50 [1] | IC50 [2]
N=C1NC(=O)/C(=C/c2ccc(O)c([N+](=O)[O-])c2)S1 | > 75 µM | –
O=C1NC(=O)/C(=C/c2ccc(-c3ccc(C(=O)O)cc3)o2)S1 | – | 2.3 µM
